# According to ChEMBL document CHEMBL1123066, “N alpha-(diphenoxyphosphoryl)-L-alanyl-L-proline, N alpha-[bis (4-nitrophenoxy)phosphoryl]-L-alanyl-L-proline, and N alpha-[ (2-phenylethyl)phenoxyphosphoryl]-L-alanyl-L-proline: releasers of potent inhibitors of angiotensin converting enzyme at physiological pH and temperature” (J Med Chem, 1985):
# The chains behind the UniProt entries cited, without tags or fusion partners. Residues count along the entry.
# UniProt P12822, 34-1310 limits assumed: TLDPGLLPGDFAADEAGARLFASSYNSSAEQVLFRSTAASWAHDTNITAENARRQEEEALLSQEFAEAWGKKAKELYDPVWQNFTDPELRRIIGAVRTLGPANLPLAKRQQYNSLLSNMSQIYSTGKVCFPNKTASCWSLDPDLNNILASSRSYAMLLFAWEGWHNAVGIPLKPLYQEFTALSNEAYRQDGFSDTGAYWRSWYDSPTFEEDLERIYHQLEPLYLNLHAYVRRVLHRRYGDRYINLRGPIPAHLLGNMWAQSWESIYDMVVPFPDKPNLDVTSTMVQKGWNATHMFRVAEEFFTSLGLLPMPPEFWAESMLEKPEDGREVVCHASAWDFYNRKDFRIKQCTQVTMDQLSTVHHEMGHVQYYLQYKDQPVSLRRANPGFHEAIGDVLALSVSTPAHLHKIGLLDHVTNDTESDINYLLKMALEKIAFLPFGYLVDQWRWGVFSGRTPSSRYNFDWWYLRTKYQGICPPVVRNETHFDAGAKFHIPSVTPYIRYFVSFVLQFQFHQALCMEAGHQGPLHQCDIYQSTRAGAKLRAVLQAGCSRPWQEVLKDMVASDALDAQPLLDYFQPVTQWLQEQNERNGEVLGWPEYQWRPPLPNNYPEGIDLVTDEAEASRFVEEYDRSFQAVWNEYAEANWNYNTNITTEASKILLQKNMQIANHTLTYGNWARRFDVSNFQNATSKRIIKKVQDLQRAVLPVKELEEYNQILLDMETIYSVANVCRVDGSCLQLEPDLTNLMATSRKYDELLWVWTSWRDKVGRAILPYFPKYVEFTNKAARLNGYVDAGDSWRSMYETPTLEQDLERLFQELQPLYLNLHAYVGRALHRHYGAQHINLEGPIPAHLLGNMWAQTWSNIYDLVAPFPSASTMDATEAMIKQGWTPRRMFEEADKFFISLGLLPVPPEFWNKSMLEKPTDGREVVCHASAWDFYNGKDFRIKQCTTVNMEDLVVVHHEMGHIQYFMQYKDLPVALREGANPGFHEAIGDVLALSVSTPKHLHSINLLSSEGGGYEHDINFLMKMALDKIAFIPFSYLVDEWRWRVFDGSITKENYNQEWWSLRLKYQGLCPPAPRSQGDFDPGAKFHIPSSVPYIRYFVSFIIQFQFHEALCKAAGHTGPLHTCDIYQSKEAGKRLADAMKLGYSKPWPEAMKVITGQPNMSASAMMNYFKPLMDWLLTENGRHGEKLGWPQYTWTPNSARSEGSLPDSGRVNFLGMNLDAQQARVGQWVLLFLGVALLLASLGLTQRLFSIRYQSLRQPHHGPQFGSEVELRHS
# Biological target: Angiotensin-converting enzyme (Oryctolagus cuniculus, UniProt P12822)
# Experiment: Inhibition of Angiotensin I converting enzyme from rabbit lungs at pH 7.5
row,Compound,Ki [nM]
1,CC(C)OP(=O)(O)N[C@@H](C)C(=O)N1CCC[C@H]1C(=O)O,1.4
2,CCOP(=O)(O)N[C@@H](C)C(=O)N1CCC[C@H]1C(=O)O,1.2
3,COP(=O)(O)N[C@@H](C)C(=O)N1CCC[C@H]1C(=O)O,2.6
